Values quoted from earlier work as cited in patent US7235142B2, “Non-toxic corrosion-protection rinses and seals based on cobalt” (University of Dayton, priority 2002, dated 2007).

Details: at or near 25° C. and at or near pH 7

Substance | Solubility in Water (oxidizer sources) | Solubility in Water (cobalt sources) [mol/L]
Me4N^+ nitrate | ~1 × 10^1^ mole/L | 
Cobalt (II) chlorate |  | 16.7

Where two headings read alike, the source gives them in different places.
